The structures appear in SMILES notation.

Protein sequences, listed by entry. Tags and fused reporters are not part of them.
UniProt Q16853, whole entry: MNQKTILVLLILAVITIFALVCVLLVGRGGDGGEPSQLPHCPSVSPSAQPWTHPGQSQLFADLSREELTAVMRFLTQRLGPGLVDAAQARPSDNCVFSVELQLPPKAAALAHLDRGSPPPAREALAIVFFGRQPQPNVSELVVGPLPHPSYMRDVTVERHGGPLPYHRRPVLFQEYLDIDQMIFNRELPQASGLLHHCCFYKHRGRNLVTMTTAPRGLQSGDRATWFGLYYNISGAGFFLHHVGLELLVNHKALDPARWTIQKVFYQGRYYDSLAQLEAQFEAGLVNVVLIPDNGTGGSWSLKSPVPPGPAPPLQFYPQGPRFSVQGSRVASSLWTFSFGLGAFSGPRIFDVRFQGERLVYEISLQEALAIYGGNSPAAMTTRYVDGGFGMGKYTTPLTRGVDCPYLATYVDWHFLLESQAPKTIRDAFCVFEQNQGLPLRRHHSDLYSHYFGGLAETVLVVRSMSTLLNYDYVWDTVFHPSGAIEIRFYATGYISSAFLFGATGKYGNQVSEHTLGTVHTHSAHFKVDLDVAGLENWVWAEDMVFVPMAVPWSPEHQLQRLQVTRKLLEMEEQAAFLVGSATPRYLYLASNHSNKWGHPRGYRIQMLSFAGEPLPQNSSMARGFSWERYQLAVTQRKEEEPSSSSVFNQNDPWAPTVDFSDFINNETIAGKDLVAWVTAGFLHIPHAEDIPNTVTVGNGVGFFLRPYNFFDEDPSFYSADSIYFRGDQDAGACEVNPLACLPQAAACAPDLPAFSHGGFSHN

This note sets out measurements from patent publication US9371290B2, “Pyridazinone compounds” (BIOTIE THERAPIES CORPORATION, priority 2011, dated 2016).

Assay [1] addresses Recombinant human VAP-1 SSAO (Homo sapiens, UniProt Q16853). The assay can be described thus: In vitro inhibition of VAP-1 SSAO activity (coupled colorimetric method, benzylamine substrate). To be noted: read-out: VAP-1 SSAO Inhibitory activity IC50, CHO cell lysate, 1 mM benzylamine. On the procedure: VAP-1 SSAO activity was measured using the coupled colorimetric method essentially as described for monoamine oxidase and related enzymes (Holt, A., et al., Anal. Biochem. 244:384-392 (1997)). Recombinant human VAP-1 SSAO expressed in Chinese Hamster Ovary (CHO) cells was used as a source of VAP-1 SSAO for activity measurements. Native CHO cells have negligible SSAO activity. These cells and their culture have previously been described (Smith, D. J., et al., J. Exp. Med. 188:17-27 (1998)). A cell lysate was prepared by suspending approximately 3.6×10^8 cells in 25 ml lysis buffer (150 mM NaCl, 10 mM Tris-Base pH 7.2, 1.5 mM MgCl2, 1% NP40) and incubating at 4° C. overnight on a rotating table. The lysate was clarified by centrifugation at 18 000 g for 5 min at room temperature and the supernatant used directly in the assay. The VAP-1 SSAO assay was performed in 96 well microtitre plates as follows. To each well was added a predetermined amount of inhibitor if required. […] The plates were incubated for 30 min at 37° C. and the background absorbance measured at 490 nm using a Wallac Victor II multilabel counter. […] The increase in absorbance, reflecting VAP-1 SSAO activity, was measured at 490 nm. Inhibition was presented as percent inhibition compared to control after correcting for background absorbance and IC50 values calculated using GraphPad Prism.

For another assay, the system named is Total MAO. Briefly: Total rat MAO activity (rat liver mitochondrial preparation, tyramine substrate). As to conditions: at 100 μM. On the procedure: Rat MAO was prepared from rat liver by rinsing the 1 g liver sample several times in 14 ml KCl-EDTA-solution to remove all blood. Then 1 g liver sample was homogenized in 4 ml ice-cold potassium phosphate buffer (0.1 M, pH 7.4) with an Ultra-Turrax homogenizer (setting 11 000 rpm, 4×10 s). After centrifugation at 500 g for 10 min at 4° C. the supernatant was carefully withdrawn and was centrifuged at 12 300 g for 15 min at 4° C. The supernatant was discharged and sedimented mitochondria were resuspended in 4 ml fresh phosphate buffer and centrifuged as previously. The mitochondria were suspended in 4 ml phosphate buffer and homogenized with an Ultra-Turrax homogenizer (setting 11 000 rpm, 2×10 s). Mitochondrial preparate was aliquoted and stored at −70° C. Total MAO activity was measured in a similar way as for VAP-1 SSAO except that SSAO enzyme was replaced by MAO enzyme. To each well was added a predetermined amount of inhibitor if required. […] The plates were incubated for 30 min at 37° C. and the background absorbance measured at 490 nm using a Wallac Victor II multilabel counter. […] The increase in absorbance, reflecting MAO activity, was measured at 490 nm. Inhibition was presented as percent inhibition compared to control after correcting for background absorbance and IC50 values calculated using GraphPad Prism. […]

Regarding `O=c1cc(NC2CCCCC2)c(-c2nc[nH]n2)cn1-c1ccccc1`, in assay [1], the IC50 (usually the concentration needed to halve the response being measured) worked out at 170 nM. In addition, the “Total MAO Inhibitory activity (%)” value in the assay with Total MAO came to 5%.
